Measured values taken from patent US12018299B2, “Methods and kits for quantifying adenosine-containing molecules” (priority 2017, dated 2024).

Chains of the proteins cited; added tags and fusions are not shown.
UniProt Q9ZMY2, whole entry D198N: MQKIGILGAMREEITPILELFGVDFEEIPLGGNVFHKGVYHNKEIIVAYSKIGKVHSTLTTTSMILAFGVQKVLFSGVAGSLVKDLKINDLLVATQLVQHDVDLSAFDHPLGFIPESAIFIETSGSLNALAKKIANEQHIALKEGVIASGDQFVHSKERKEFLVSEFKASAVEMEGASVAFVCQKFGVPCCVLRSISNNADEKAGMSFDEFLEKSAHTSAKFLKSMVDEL

Target: MTAN-D198N (Helicobacter pylori, UniProt Q9ZMY2, D198N)
Details: read-out: Ki from competitive FP assay; 11.3 nM AdoHcy-TAMRA, 50 nM MTAN-D198N

## Nc1ncnc2c1ncn2[C@@H]1O[C@H](CSCC[C@H](N)C(=O)O)[C@@H](O)[C@H]1O [AdoHcy, S-adenosylhomocysteine]
  Ki: 0.0295 ± 0.0036 µM

## C[S+](CC[C@H](N)C(=O)O)C[C@H]1O[C@@H](n2cnc3c(N)ncnc32)[C@H](O)[C@@H]1O (some centres unmarked) [AdoMet, S-adenosyl methionine]
  Ki: 0.989 ± 0.16 µM
